Values quoted from earlier work as cited in patent publication US20050113573A1, “Nitroso compounds to treat ischemia” (priority 2003, published 2005).
Only a part of the results on these compounds is given; other tests are left out.

System: rat kidney
Settings: rat kidney ischemia/reperfusion

## sodium nitroprusside
  survival and histological damage: significantly better survival with minimal histological damage
